PMC4374917, “Identification of Small Molecules that Disrupt Signaling between ABL and Its Positive Regulator RIN1” (PLoS ONE, 2015)

Sequences of proteins named here, by UniProt entry; tags and fusion partners are left off. Residues count along the entry.
UniProt P00519, 1-531 isoform 2 limits assumed: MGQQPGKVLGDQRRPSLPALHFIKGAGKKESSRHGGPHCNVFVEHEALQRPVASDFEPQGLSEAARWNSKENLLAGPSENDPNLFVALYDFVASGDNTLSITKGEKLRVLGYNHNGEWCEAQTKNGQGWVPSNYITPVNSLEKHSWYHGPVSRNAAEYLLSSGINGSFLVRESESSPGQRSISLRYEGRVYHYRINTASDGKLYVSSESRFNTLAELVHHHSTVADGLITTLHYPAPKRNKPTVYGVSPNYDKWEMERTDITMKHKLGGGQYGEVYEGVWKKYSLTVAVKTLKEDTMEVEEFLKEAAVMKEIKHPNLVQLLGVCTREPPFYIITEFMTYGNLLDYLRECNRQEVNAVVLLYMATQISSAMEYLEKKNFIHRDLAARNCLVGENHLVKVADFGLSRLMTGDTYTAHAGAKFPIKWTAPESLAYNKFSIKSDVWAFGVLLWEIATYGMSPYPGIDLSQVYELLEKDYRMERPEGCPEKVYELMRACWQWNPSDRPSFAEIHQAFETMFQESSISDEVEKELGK
UniProt Q13671, whole entry: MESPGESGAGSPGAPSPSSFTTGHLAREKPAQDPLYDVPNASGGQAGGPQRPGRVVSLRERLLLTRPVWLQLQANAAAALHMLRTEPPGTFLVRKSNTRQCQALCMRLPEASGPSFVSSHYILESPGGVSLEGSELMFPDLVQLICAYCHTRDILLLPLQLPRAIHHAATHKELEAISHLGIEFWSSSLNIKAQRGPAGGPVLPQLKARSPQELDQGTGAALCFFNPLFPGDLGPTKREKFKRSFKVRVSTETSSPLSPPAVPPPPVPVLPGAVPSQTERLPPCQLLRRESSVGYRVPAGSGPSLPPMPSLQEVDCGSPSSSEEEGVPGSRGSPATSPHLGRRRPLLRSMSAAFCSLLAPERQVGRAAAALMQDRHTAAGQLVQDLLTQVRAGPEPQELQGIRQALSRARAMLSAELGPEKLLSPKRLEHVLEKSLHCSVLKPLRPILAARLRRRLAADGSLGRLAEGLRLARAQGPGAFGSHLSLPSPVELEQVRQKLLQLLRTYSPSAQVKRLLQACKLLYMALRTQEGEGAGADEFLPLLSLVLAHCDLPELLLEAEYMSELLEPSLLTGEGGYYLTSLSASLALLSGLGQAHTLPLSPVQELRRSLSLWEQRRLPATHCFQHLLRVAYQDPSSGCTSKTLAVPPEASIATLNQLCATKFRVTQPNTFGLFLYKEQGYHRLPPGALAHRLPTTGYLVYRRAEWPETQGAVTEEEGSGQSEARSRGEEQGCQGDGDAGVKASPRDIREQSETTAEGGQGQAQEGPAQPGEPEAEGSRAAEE

Biological target: RIN1::ABL1 interaction (RIN1-SBP / ABL1-eGFP) (Homo sapiens, UniProt P00519+Q13671)
Experiment: TR-FRET assay of RIN1::ABL binding
Settings: for IC50: read-out: IC50 (M) in TR-FRET assay, 21 hits selected for cell-based assay, concentration-response curves in triplicate
[1] = S2 Table, TR-FRET assay, maximal inhibition
[2] = S4 Table, N-acyl piperidine-4-carboxamide series SAR, RIN1-ABL dose-response curve

SMILES | Max response (%) [1] [%] | Max response (%) [2] [%] | IC50 (S2 Table) [M]
O=C(Cc1ccc(NC(=O)C2CCN(C(=O)c3ccccc3)CC2)cc1)Nc1ccc(C(=O)N2CCOCC2)cc1 | – | 81.29 | –
O=C(Cc1ccc(NC(=O)C2CCN(C(=O)C3CCCCC3)CC2)cc1)Nc1ccc(C(=O)N2CCOCC2)cc1 | – | 82.92 | –
Cc1c(C(=O)NCC(c2ccco2)N(C)C)oc2c(Cl)cccc12 (centres unmarked) | 77.5362 | – | 4.68e-06
Cc1c(C(=O)NCCN2CCOCC2)oc2ccc(Br)cc12 | 70.7009 | – | –
CC(=O)Nc1ccc(NC(=O)C2CCN(C(=O)c3cccs3)CC2)cc1 | 80.8242 | 82.17 | 2.17e-06
CN(C(=O)c1ccc(NC(=O)Cc2ccc(NC(=O)C3CCN(C(=O)C4CC4)CC3)cc2)cc1)C1CC1 | – | 82.72 | –
CCOC(=O)N1CCC(NC(=O)CCc2nc(C3=CCN(C)CC3)no2)CC1 | 81.367 | 84.52 | 9.41e-06
CN(CCc1ccccc1)C(=O)c1ccc(NC(=O)Cc2ccc(NC(=O)C3CCN(C(=O)C4CCCC4)CC3)cc2)cc1 | – | 87.13 | –
N#Cc1ccccc1Sc1ccccc1C(=O)NCC(c1ccco1)N1CCCC1 (centres unmarked) | 75.6258 | – | 4.08e-06
CCOC(=O)N1CCN(C(=O)Nc2ccc(NC(=O)N3CCN(C(=O)OCC)CC3)cc2)CC1 | 63.6586 | – | 1.11e-05
O=C(Cc1ccc(NC(=O)C2CCN(C(=O)C3CCCC3)CC2)cc1)Nc1ccc(C(=O)N2CCOCC2)cc1 | – | 86.36 | –
CCN(CC(=O)Nc1ccc(NC(C)=O)cc1)C(=O)c1ccccc1SCc1c(C)noc1C | 78.5939 | – | –
CN(CCc1ccccc1)C(=O)c1ccc(NC(=O)Cc2ccc(NC(=O)C3CCN(C(=O)c4ccccc4)CC3)cc2)cc1 | – | 83.49 | –

Continued, values first:

Max response (%) [1] [%] | Max response (%) [2] [%] | IC50 (S2 Table) [M] | SMILES
72.5318 | – | – | COc1ccc(Cl)cc1NC(=O)CN(C)C(=O)c1cc(-c2ccncc2)nc2ccccc12
100.163 | – | 1.61e-08 | O=c1cc(OCc2ccccc2)cc[nH]1
103.208 | – | 4.31e-06 | Cn1c(=O)c2c(nc(-n3ccnc3)n2Cc2ccc(Cl)cc2Cl)n(C)c1=O
52.2034 | – | 3.02e-07 | O=C(c1cc(COc2cccc3cccnc23)on1)N1CCC[C@H]1CO
73.3989 | – | 5.19e-06 | COc1ccc2oc(C(=O)NCC(c3ccco3)N(C)C)c(C)c2c1 (centres unmarked)
75.8616 | – | 3.77e-06 | CN(Cc1c(F)cccc1Cl)C(=O)CNC(=O)c1ccc2c(c1)OCO2
88.0885 | – | 4.01e-06 | COc1ccc(CCNc2cc(=O)[nH]c(N)n2)cc1
86.5374 | – | 5.94e-06 | CSc1ccccc1OCc1cc(C(=O)N2CCNC(=O)C2)no1
